Results reported in patent US20260015632A1, “CULTURE MEDIUM COMBINATION FOR INDUCING DIFFERENTIATION OF PLURIPOTENT STEM CELLS INTO CD34+ HEMATOPOIETIC STEM/PROGENITOR CELLS” (SHENZHEN CELL INSPIRE BIOTECHNOLOGY CO., LTD., priority 2023, published 2026).

Tested on: iPSCs
Assay: Optimization of iNK purity and yield, flow cytometry CD56/CD45 and fold expansion
Assay type: cell-based, human
Experimental: To further improve the differentiation efficiency and cytotoxicity of the obtained NK cells, UM171 was added to the second differentiation medium. Additionally, 1) 10 M SPHK2 inhibitor ABC294640 was added to the second and third differentiation medium, or 2) 75 M nicotinamide adenine dinucleotide (NAD^+), or 0.1 ng/mL HLA-C, or 1000 IU IL-2, or 15 μM SB203580 was added to the fourth differentiation medium. The expression levels of CD56 and CD45 of the obtained NK cells and the cell fold expansion were measured by flow cytometry.
The cell expansion at the HSPC stage and the NK stage was calculated by dividing the number of suspension cells obtained at the sampling time point by the initial number of iPSCs at the spheroidization stage. The cell number was determined using the Countess™ 2 automated cell counter, and specific operating procedures can be found in the instrument's instructions.

[1] = added to fourth differentiation medium: NAD+, 0.1 ng/mL HLA-C, 1000 IU IL-2 or 15 μM SB203580

IL-2: cytokine additive of the fourth differentiation medium
proportion of CD56+ or CD45+ cells [1]: without affecting | yield of iNK cells [1]: increase | proliferation rate of iNK cells (concentrations and media as in Example 5): increase
